# According to patent US20220074941A1, “HSP90 COMBINATION THERAPY” (Sloan-Kettering Institute for Cancer Research, priority 2011, published 2022):
# Key:
# [1] = tested on: Hsp90 complexes in K562 cell extract; experiment: Nano-LC-MS/MS of PU-beads pull-downs; format: binding; details: protein identified in PU-beads pull-down of K562 cell extract, QSTAR-Elite QTof MS
# [2] = tested on: Hsp90 complexes in Mia-PaCa-2 cell extract; experiment: Nano-LC-MS/MS of PU-beads pull-downs; format: binding, human; details: protein identified in PU-beads pull-down of Mia-PaCa-2 cell extract; QSTAR-Elite QTof MS
substance,measurement,setting,value
BAT3,"Number of Assigned Spectra, K562 Prep 1",[1]; Prep 1,4
same,"Number of Assigned Spectra, K562 Prep 2",[1]; Prep 2,5
same,"Number of Assigned Spectra, Mia-Paca 2",[2],3
